The target of the assay is glutathione-S-transferase (GST) (Schistosoma japonicum (Blood fluke)) [GST: P08515]. The experiment in a line: Kitz-Wilson analysis of the irreversible inactivation of GST: double-reciprocal plot of 1/k_obs (min^-1) against 1/[Inhibitor] (mM^-1), five points with a straight-line fit.

pKd: −log10 of the molar value.

Consider “conjugate of formula (6) (glutathione-benzoquinone conjugate) (peptide)”, for which the pKd (usually −log10 of the Kd, conventionally taken in molar units) was 3.55.

Values taken from patent publication US7172905.
